Earlier results in patent publication US20240115578A1, “DRUG COMPOSITION FOR TREATING PEDIATRIC CANCERS” (CHUGAI SEIYAKU KABUSHIKI KAISHA, priority 2021, published 2024).

System: ALK fusion gene-positive NSCLC
Conditions: phase III, Japanese adults; cited from earlier work

## CCc1cc2c(cc1N1CCC(N3CCOCC3)CC1)C(C)(C)c1[nH]c3cc(C#N)ccc3c1C2=O [alectinib, 9-ethyl-6,6-dimethyl-8-(4-morpholin-4-yl-piperidin-1-yl)-11-oxo-6,11-dihydro-5H-benzo[b]carbazole-3-carbonitrile]
  Safety and efficacy outcomes versus crizotinib: better outcomes than crizotinib in terms of both safety and efficacy
